The values below are quoted from earlier work in US20260126455A1, “Methods and Dosing Regimens for Preventing or Delaying Onset of Alzheimer's Disease and Other Forms of Dementia and Mild Cognitive Impairment” (priority 2020, published 2026).

The data set concerns A7R-transfected SK-N-MC human neuroblastoma cells. The conditions noted are these: 2 micromolar; cited from earlier work.

Turning to `O=[As]c1ccccc1` (stereo not shown), the “Block of Abeta42 internalization and accumulation in transfected cells” value is reported as “blocked”.
